Source: PubChem BioAssay AID556 (SRMLSC, 2006)
The entries are a selection whose mix differs from that of the whole data set. Calls of active or inactive are those of the source.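 How the source made its calls: active means the 320 compounds with the highest percent inhibition in the single-dose primary screen, excluding strongly autofluorescent ones (cut at about 32% in these data); inactive means the rest, inconclusive results apart.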

Each compound was assayed on diphosphomevalonate decarboxylase (Streptococcus pneumoniae D39) (assay: diphosphomevalonate decarboxylase activity blockers – biochemical, PK/LDH-coupled NADH fluorescence, primary screen (AID 556;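 further: kinetic rate of NADH fluorescence loss reporting ADP formed by the decarboxylase; 0% = full reaction rate with carrier and 100% = no-substrate background rate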)). Conditions: purified DPM-DC, at 10 µM, active compounds read high.

| Structure (SMILES) | inhibition |
| --- | --- |
| O=P(Nc1nccs1)(c1ccccc1)c1nc2ccccc2s1 (stereo unspecified) | active: 81% |
